Assay results: patent US11021493B2, “1,4-thiazine dioxide and 1,2,4-thiadiazine dioxide derivatives as beta-secretase inhibitors and methods of use” (AMGEN INC., priority 2016, dated 2021)

By UniProt entry, the sequences of proteins in these tests, tags left out. Where a name states a change or a piece, a line headed by the entry shows the natural chain unless it says otherwise.
UniProt P07339: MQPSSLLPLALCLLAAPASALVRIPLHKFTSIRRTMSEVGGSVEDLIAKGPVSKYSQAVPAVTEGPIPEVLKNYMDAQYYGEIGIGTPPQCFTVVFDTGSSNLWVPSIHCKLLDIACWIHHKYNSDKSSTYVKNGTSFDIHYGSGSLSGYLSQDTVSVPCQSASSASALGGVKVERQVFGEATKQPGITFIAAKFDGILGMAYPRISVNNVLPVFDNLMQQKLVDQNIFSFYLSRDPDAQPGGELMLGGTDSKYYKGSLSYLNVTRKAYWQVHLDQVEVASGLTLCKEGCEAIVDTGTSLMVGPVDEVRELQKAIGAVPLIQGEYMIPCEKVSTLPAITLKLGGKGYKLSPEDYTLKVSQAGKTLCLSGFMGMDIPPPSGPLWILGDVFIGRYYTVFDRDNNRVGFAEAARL
UniProt Q9Y5Z0: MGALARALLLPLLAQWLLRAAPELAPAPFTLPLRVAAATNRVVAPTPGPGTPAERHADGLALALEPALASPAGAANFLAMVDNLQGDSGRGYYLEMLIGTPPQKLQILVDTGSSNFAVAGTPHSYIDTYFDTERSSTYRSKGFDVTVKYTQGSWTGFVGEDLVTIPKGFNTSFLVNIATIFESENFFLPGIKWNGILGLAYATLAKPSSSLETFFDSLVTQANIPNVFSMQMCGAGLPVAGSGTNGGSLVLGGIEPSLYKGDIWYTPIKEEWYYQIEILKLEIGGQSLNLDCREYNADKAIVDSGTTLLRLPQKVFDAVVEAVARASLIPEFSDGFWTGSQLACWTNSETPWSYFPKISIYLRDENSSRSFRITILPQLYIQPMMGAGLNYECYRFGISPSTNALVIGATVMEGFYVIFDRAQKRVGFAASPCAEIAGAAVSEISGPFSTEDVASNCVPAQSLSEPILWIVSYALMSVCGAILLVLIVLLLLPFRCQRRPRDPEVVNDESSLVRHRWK
UniProt P56817: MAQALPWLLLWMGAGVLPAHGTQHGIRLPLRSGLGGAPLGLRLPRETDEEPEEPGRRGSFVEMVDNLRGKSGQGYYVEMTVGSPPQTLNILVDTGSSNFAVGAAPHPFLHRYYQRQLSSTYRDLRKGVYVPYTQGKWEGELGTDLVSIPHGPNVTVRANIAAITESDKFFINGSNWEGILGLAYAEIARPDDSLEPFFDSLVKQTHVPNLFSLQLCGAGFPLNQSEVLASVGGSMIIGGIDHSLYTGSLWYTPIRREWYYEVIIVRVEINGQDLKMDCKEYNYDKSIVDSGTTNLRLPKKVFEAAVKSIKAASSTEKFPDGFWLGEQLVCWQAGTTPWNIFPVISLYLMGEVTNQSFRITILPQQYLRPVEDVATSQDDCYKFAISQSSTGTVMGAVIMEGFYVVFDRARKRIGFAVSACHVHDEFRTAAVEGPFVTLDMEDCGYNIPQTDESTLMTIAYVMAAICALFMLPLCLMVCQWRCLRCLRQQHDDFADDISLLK

Key:
Cathepsin D (CatD) = Cathepsin D (CatD) (Homo sapiens (Human), UniProt P07339); test: In vitro enzymatic Cathepsin D (CatD) FRET assay; assay type: biochemical; details: read-out: Cat D Enzyme IC50
human recombinant BACE2 = human recombinant BACE2 (Homo sapiens (Human), UniProt Q9Y5Z0); test: In vitro enzymatic BACE2 FRET assay; assay type: biochemical; details: read-out: BACE2 Enzyme IC50
BACE1 [1] = target: T1, BACE1 (Homo sapiens (Human), UniProt P56817); test: In vitro BACE1 cell-based assay (Aβ40 in conditioned medium of cells stably expressing APP, HTRF); details: read-out: BACE1 Cell IC50; Aβ40 in conditioned media after 24 h incubation
BACE1 [2] = target: T1, BACE1; test: In vitro enzymatic BACE1 FRET assay; assay type: biochemical; details: read-out: BACE1 Enzyme IC50

Question: “(1R,4R,5S)-2-amino-4-(2-fluoro-5-((Z)-2-fluoro-2-(tetrahydrofuran-2-yl)vinyl)phenyl)-1-(fluoromethyl)-4-methyl-8-thia-3-azabicyclo[3.2.1]oct-2-ene 8,8-dioxide” was tested. Which IC50 (Cathepsin D (CatD)) did it give?
Answer: 214000 nM

Question: And the IC50 (human recombinant BACE2)?
Answer: 139 nM

Question: And the IC50 (BACE1 [1])?
Answer: 972 nM

Question: What about the IC50 (BACE1 [2]) of the same substance?
Answer: 251 nM
